{"source": "paper PMC3613864", "about": "(Cell, 2012)", "tested_on": "6133/MPL cells", "assay": "Drug treatment of mice transplanted with 6133/MPL cells", "assay_type": "in vivo, C57Bl/6 mice", "conditions": "15 mg/kg oral gavage twice a day for 3 days, bone marrow"}
{"smiles": "COc1cc(Nc2ncc3c(n2)-c2ccc(Cl)cc2C(c2c(F)cccc2OC)=NC3)ccc1C(=O)O", "note": "[MLN8237, Alisertib]", "values": [{"measurement": "polyploidization of 6133/MPL cells in vivo", "value": "induced polyploidization of the malignant cells in vivo"}]}
